## Measured affinities in a library of Ab-14 heavy chain variants

The measurements come from Li et al. 2023 (doi:10.1038/s41467-023-39022-2) through the FLAb antibody collection.

All variants were tested on one target, the spike HR2 peptide PDVDLGDISGINAS (SARS-CoV-2).

Ab-14 is the parent antibody, in scFv form: VH, then a (GGGGS)3 linker, then VL. The light chain is unchanged in all variants.
VH: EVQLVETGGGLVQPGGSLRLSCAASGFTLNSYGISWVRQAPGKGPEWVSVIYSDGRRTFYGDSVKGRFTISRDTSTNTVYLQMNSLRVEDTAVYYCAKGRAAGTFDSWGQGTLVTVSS
VL: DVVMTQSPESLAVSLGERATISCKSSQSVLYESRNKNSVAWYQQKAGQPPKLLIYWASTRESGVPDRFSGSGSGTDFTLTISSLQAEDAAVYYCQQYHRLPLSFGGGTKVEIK

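The starting antibody came from a phage panning campaign against this peptide. These sequences belong to a second round, designed from the earlier measurements on random variants of the parent. Their group label is 14H_GPLM_Gibbs (GPLM: also part of the Gaussian process libraries; Gibbs: Gibbs sampling; a sequence that several methods proposed may carry one label only). AlphaSeq pools MATa yeast showing the antibodies with MATalpha yeast showing the peptide. After mating in shaken culture at 30 °C for 16 h, diploids were selected and their barcode pairs sequenced. Scores were corrected for input abundance and mapped to Kd with protein pairs of known affinity run in the same pool. There are six technical replicates.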

Variants are written as CDR1, CDR2 and CDR3 of the heavy chain (limits as in the source). Parent: GFTLNSYGIS, VIYSDGRRTFYGDSVK, GRAAGTFDS. Values are log10 of the apparent Kd in nM; lower means stronger binding. Where no diploid with the target was found in that replicate, the entry reads "ND": below detection, most likely a poor binder, though not proof of it.

{"CDR-H1": "GFSLNSYGIS", "CDR-H2": "VIYSDGRRTFYADSVK", "CDR-H3": "GREAGTFDN", "replicates, log10 nM": "0.87 / 0.17 / 0.31 / 0.30 / 0.00 / 0.65", "empty controls": "1 of 18 (1.04)"}
{"CDR-H1": "GFELNSYGIS", "CDR-H2": "VIYSDGRRTFYADSVK", "CDR-H3": "GWTAGTFDS", "replicates, log10 nM": "0.57 / 0.47 / 0.18 / -0.53 / 0.29 / 0.35", "empty controls": "0 of 18"}
{"CDR-H1": "GFTLNSYGIS", "CDR-H2": "VIYSDGRRTFYSDSVK", "CDR-H3": "GRTAGTFDT", "replicates, log10 nM": "0.34 / 0.25 / 1.45 / 0.33 / 0.44 / 0.72", "empty controls": "1 of 18 (1.90)"}
{"CDR-H1": "GFELNTYGIS", "CDR-H2": "VIYSDGRRTFYADSVK", "CDR-H3": "GEAAGTFDS", "replicates, log10 nM": "0.25 / -0.22 / 0.25 / -0.28 / 0.13 / -0.04", "empty controls": "0 of 18"}
{"CDR-H1": "GFDLNTYGIS", "CDR-H2": "VIYSDGRRTFYGDSVK", "CDR-H3": "GEAAGTFDS", "replicates, log10 nM": "0.64 / 0.28 / 0.31 / 0.34 / 0.49 / 0.36", "empty controls": "0 of 18"}
{"CDR-H1": "GFNLNSYGIS", "CDR-H2": "VIYSDGRRTFYGDSVK", "CDR-H3": "GEAAGTFDK", "replicates, log10 nM": "ND / 1.95 / ND / ND / ND / ND", "empty controls": "0 of 18"}
{"CDR-H1": "GFELNSYGIS", "CDR-H2": "VIYSDGRRTFYGDSVK", "CDR-H3": "GQAAGTFDK", "replicates, log10 nM": "ND / 1.28 / ND / ND / 1.45 / ND", "empty controls": "0 of 18"}
{"CDR-H1": "GFELNSYGIS", "CDR-H2": "VIYSDGRRTFYGDSVK", "CDR-H3": "GRVAGTFDL", "replicates, log10 nM": "1.31 / 0.44 / 0.70 / 0.80 / 0.64 / 1.05", "empty controls": "1 of 18 (2.18)"}
{"CDR-H1": "GFSLNEYGIS", "CDR-H2": "VIYSDGKRTFYGDSVK", "CDR-H3": "GRTAGTFDS", "replicates, log10 nM": "-0.21 / -0.52 / -0.58 / -1.10 / -0.71 / -0.25", "empty controls": "0 of 18"}
{"CDR-H1": "GFNLNSYGIS", "CDR-H2": "VIYSDGRRTFYGDSVK", "CDR-H3": "GQVAGTFDS", "replicates, log10 nM": "-0.50 / -0.98 / -0.97 / -0.84 / -0.55 / -0.59", "empty controls": "0 of 18"}
{"CDR-H1": "HFQLNEYGIS", "CDR-H2": "VIYSDGRRTFYGDSVK", "CDR-H3": "GRQAGTFDS", "replicates, log10 nM": "ND / 1.15 / ND / 0.65 / ND / 1.32", "empty controls": "0 of 18"}
{"CDR-H1": "GFSLNSYGIS", "CDR-H2": "VIYSDGRRTFYGDSVK", "CDR-H3": "GQVAGTFDT", "replicates, log10 nM": "0.44 / 0.20 / 0.69 / 0.24 / 0.06 / 0.46", "empty controls": "0 of 18"}
{"CDR-H1": "GFELNSYGIS", "CDR-H2": "VIYSDGRRTFYLDSVK", "CDR-H3": "GRNAGTFDS", "replicates, log10 nM": "0.86 / 1.34 / 1.79 / 0.86 / 0.69 / 1.08", "empty controls": "1 of 18 (3.44)"}
{"CDR-H1": "GFNLNSYGIS", "CDR-H2": "VIYSDGRRTFYKDSVK", "CDR-H3": "GQAAGTFDS", "replicates, log10 nM": "0.77 / 1.13 / 0.96 / 1.06 / 0.87 / 1.04", "empty controls": "1 of 18 (1.80)"}
{"CDR-H1": "GFTLNSYGIS", "CDR-H2": "VIYSDGRRTFYSDSVK", "CDR-H3": "GRLAGTFDT", "replicates, log10 nM": "0.57 / 1.49 / 0.52 / 0.70 / 0.44 / 0.94", "empty controls": "0 of 18"}
{"CDR-H1": "GFNLNSYGIS", "CDR-H2": "VIYSDGRRTFYGDSVK", "CDR-H3": "GWAAGTFDS", "replicates, log10 nM": "1.03 / ND / ND / 3.15 / ND / 1.34", "empty controls": "0 of 18"}
{"CDR-H1": "GFDLNSYGIS", "CDR-H2": "VIYSDGRRTFYIDSVK", "CDR-H3": "GEAAGTFDS", "replicates, log10 nM": "0.40 / -0.90 / -0.54 / 0.67 / -0.32 / 0.13", "empty controls": "0 of 18"}
{"CDR-H1": "GFSLNSYGIS", "CDR-H2": "VIYSDGRRTFYDDSVK", "CDR-H3": "GKTAGTFDS", "replicates, log10 nM": "ND / ND / 0.85 / 0.61 / ND / ND", "empty controls": "0 of 18"}
{"CDR-H1": "GFGLNSYGIS", "CDR-H2": "VIYSDGRRTFYSDSVK", "CDR-H3": "GQTAGTFDS", "replicates, log10 nM": "0.11 / 0.25 / 0.05 / -0.18 / -0.38 / 0.08", "empty controls": "0 of 18"}
{"CDR-H1": "GFELESYGIS", "CDR-H2": "VIYSDGRRTFYADSVK", "CDR-H3": "GKAAGTFDS", "replicates, log10 nM": "ND / ND / ND / ND / ND / ND", "empty controls": "0 of 18"}
{"CDR-H1": "GFDLNSYGIS", "CDR-H2": "VIYSDGRRTFYGDSVK", "CDR-H3": "GKEAGTFDS", "replicates, log10 nM": "0.35 / 0.10 / 0.63 / 0.59 / 0.01 / 0.12", "empty controls": "0 of 18"}
{"CDR-H1": "GFDLNSYGIS", "CDR-H2": "VIYSDGRRTFYGDSVK", "CDR-H3": "GVEAGTFDS", "replicates, log10 nM": "0.21 / 0.06 / 0.33 / 0.20 / 0.52 / 0.22", "empty controls": "1 of 18 (2.41)"}
{"CDR-H1": "GFDLNSYGIS", "CDR-H2": "VIYSDGRRTFYGDSVK", "CDR-H3": "GRTAGTFDN", "replicates, log10 nM": "0.37 / 0.19 / 0.44 / 0.49 / 0.33 / 0.31", "empty controls": "0 of 18"}
{"CDR-H1": "GFSLNSYGIS", "CDR-H2": "VIYSDGRRTFYSDSVK", "CDR-H3": "GSVAGTFDS", "replicates, log10 nM": "0.32 / -0.99 / -0.51 / -1.31 / -0.56 / -0.99", "empty controls": "0 of 18"}
{"CDR-H1": "GFNLNSYGIS", "CDR-H2": "VIYSDGRRTFYGDSVK", "CDR-H3": "GKNAGTFDS", "replicates, log10 nM": "0.60 / 0.82 / 1.62 / 1.85 / 0.38 / 0.91", "empty controls": "2 of 18 (1.47)"}

Three control strains display no target. For all heavy chain designs, 1% of the pairings with them gave a signal, with a median of 2.08 and one signal in twenty below 0.84, so weak values seen in few replicates may be background. For each scFv, signals with the empty controls are counted beside the result, with their mean in brackets. The authors' rule: three or more of the six replicates give a measured affinity, fewer mean a poor binder. Values of this round are not directly comparable with the first-round values of the same sequences. Of ten entries with the parent sequence, four were seen in most replicates (averages 0.34 to 2.37), three in one and three in none, so single entries are noisy.